For 1 compound, Ki results are on record in ChEMBL document CHEMBL1781997, “Anticonvulsant 4-aminobenzenesulfonamide derivatives with branched-alkylamide moieties: X-ray crystallography and inhibition studies of human carbonic anhydrase isoforms I, II, VII, and XIV” (J Med Chem, 2011).

The test addresses Carbonic anhydrase 2 (Homo sapiens, UniProt P00918).

`NS(=O)(=O)c1ccc(NC(=O)Cc2ccccc2)cc1` registered an inhibitory constant (Ki) of 9 nM.

By Ki is commonly meant the dissociation constant of the complex between target and ligand, obtained from inhibition or displacement. Lower therefore signals tighter binding.
